The values that follow come from US6897217B2, “2-Alkynyl-and 2-alkenyl-pyrazolo-[4,3-e]-1,2,4-triazolo-[1,5-c]-pyrimidine adenosine A2a receptor antagonists” (Schering Corporation, priority 2003, dated 2005).

The experiment has as its target Human A2a Adenosine Receptor (Homo sapiens, UniProt P29274). As to the kind of experiment: Human adenosine A2a receptor competition binding assay. The following applies: read-out: A2a Ki; [3H]-SCH 58261 displacement, human A2a membranes. How it is done:
Human Adenosine A2a and A1 Receptor Competition Binding Assay Protocol
• A2a: Human A2a Adenosine Receptor membranes, Catalog #RB-HA2a, Receptor Biology, Inc., Beltsville, Md. Dilute to 17 μg/100 μl in membrane dilution buffer (see below). Assay Buffers • Membrane dilution buffer: Dulbecco's Phosphate Buffered Saline (Gibco/BRL)+10 mM MgCl2. • Compound Dilution Buffer: Dulbecco's Phosphate Buffered Saline (Gibco/BRL)+10 mM MgCl2 supplemented with 1.6 mg/ml methyl cellulose and 16% DMSO. Prepared fresh daily. Ligands • A2a: [3H]-SCH 58261, custom synthesis, AmershamPharmacia Biotech, Piscataway, N.J. Stock is prepared at 1 nM in membrane dilution buffer. Final assay concentration is 0.5 nM. • A1: [3H]-DPCPX, AmershamPharmacia Biotech, Piscataway, N.J. Stock is prepared at 2 nM in membrane dilution buffer. Final assay concentration is 1 nM. Non-specific Binding • A2a: To determine non-specific binding, add 100 nM CGS 15923 (RBI, Natick, Mass.). Working stock is prepared at 400 nM in compound dilution buffer. • A1: To determine non-specific binding, add 100 μM NECA (RBI, Natick, Mass.). Working stock is prepared at 400 μM in compound dilution buffer. Compound Dilution • Prepare 1 mM stock solutions of compounds in 100% DMSO. Dilute in compound dilution buffer. Test at 10 concentrations ranging from […] to 30 μM. Prepare working solutions at 4× final concentration in compound dilution buffer. […]

SMILES strings stand for the structures.

For `CC#Cc1nc2c3cnn(CCN4CCN(c5cc6oc(C)nc6cc5F)CC4)c3nc(N)n2n1`, the Ki (in general, the equilibrium dissociation constant of an inhibitor or competing ligand from its target) was determined as 0.6 nM.

For `CC#Cc1nc2c3cnn(CCN4CCN(c5cc6nc(C)oc6cc5F)CC4)c3nc(N)n2n1`, the Ki turned out to be 0.5 nM.
